Where “and” joins values, the source holds several entries; their conditions need not be identical. Equal values may be shown once. Read-outs that look alike come from different tables or passages of the source.
Legend:
CFTR = CFTR (Homo sapiens, UniProt P13569)
Na^+/K^+ ATPase = experiment: Ouabain-sensitive ISC in apically permeabilized T84 cells; assay type: cell-based, human; settings: 20 μM
[1] = test system: CT-induced intestinal fluid secretion; assay type: in vivo, mouse; settings: 6 h

Protein sequences, listed by entry. Tags and fused reporters are not part of them.
UniProt P13569, whole entry: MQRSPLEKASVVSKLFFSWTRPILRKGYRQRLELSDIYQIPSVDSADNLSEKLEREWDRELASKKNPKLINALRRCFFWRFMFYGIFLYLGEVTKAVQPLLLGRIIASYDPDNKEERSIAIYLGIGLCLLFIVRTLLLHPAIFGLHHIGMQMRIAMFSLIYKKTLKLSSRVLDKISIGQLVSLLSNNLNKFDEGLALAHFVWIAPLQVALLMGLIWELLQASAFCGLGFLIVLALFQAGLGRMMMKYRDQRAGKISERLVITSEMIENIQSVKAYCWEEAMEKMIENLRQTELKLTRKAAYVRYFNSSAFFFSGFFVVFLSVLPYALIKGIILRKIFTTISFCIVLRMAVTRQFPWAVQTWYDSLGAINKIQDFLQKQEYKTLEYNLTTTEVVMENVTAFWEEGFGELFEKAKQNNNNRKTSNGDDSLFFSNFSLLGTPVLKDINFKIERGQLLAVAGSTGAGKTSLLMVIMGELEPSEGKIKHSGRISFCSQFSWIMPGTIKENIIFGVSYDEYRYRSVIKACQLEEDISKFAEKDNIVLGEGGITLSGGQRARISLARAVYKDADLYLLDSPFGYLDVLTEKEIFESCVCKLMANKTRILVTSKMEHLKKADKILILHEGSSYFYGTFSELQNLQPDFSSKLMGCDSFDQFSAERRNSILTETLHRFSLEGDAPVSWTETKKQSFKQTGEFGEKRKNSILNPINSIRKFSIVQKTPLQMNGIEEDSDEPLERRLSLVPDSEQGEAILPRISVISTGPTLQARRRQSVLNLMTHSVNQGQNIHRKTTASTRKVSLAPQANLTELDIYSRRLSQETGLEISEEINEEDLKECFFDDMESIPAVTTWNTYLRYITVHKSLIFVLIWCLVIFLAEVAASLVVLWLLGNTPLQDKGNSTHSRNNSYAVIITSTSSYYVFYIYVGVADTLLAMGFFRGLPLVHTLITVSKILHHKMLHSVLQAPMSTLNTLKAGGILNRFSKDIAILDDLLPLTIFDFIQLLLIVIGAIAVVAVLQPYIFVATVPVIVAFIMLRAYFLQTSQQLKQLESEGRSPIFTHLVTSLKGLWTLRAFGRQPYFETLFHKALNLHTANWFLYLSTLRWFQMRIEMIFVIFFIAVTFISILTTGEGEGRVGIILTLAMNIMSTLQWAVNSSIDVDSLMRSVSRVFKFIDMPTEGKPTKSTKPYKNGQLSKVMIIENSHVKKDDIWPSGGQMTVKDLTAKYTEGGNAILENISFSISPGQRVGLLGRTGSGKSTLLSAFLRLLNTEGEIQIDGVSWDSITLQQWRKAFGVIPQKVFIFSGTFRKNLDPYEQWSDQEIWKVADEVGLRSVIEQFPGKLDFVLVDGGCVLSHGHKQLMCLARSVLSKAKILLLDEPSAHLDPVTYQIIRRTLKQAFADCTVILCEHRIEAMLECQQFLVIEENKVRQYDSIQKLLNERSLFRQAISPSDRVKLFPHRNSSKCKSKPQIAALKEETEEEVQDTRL

## CC[C@H](C)C(=O)O[C@H]1C[C@@H](C)C=C2C=C[C@H](C)[C@H](CC[C@@H]3CC=CC(=O)O3)[C@H]21 [DHLV, α,β-dehydrolovastatin]
CFTR; IC50, CFTR-mediated apical ICl^- induced by CPT-cAMP, CPT-cAMP (100 μM)
  IC50: 5500 ± 210 nM
CFTR; IC50, CFTR-mediated apical ICl^- induced by forskolin, forskolin (20 μM) as CFTR stimulator
  IC50: 2100 ± 250 nM
CFTR; IC50, forskolin-induced CFTR apical ICl^- after Na3VO4 and NaF pretreatment, NaF plus Na3VO4 (1 mM, PP inhibitors), 15 min
  IC50: 2710 ± 260 nM
CFTR; IC50, forskolin-induced CFTR apical ICl^- after compound C pretreatment, compound C (50 μM, AMPK inhibitor), 15 min
  IC50: 4450 ± 440 nM
CFTR; IC50, forskolin-induced CFTR-mediated apical ICl^- in the presence of MK571, pre-treatment with MK571 (20 μM, MRP4 inhibitor)
  IC50: 1660 ± 320 nM
Na^+/K^+ ATPase
  Effect on ouabain-sensitive ISC (Na^+/K^+ ATPase activity): did not affect
[1]
  Reduction of CT-induced fluid secretion (loop weight/length ratio), intraluminal: 65% and ~64.64%
  Reduction of CT-induced fluid secretion (loop weight/length ratio), intraperitoneal: 59% and ~59.30%

— publication PMC9770395 (PLOS Neglected Tropical Diseases, 2022)
